In this assay the target is T1, soluble A-protein (As), purified from bovine rod outer segments, N-terminus SEQ ID NO:2 (Bos taurus, UniProt P21457).
T1 sequence (P21457 2-202): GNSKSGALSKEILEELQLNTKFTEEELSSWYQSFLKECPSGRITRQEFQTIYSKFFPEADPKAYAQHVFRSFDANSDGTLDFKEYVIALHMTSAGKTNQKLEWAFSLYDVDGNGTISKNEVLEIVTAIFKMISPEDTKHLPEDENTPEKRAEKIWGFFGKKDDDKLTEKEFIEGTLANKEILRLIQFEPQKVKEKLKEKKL
The experiment in a line: ATPase assay (hydrolysis of [γ-32P]ATP). It counts as biochemical. Particulars: double reciprocal plots and regression analysis. The procedure:
The rate of hydrolysis of GTP or ATP by both soluble and membrane-bound A-protein was assayed in a total volume of 200 µl. 1.0 to 10.0 µg As or Am, 5 x 10^-5 M GTP or ATP, 67 to 335 nM [γ-^32P] GTP (2.8 Ci/mmol) or 88.8 to 177.5 nM [γ-^32P] ATP (2.8 Ci/mmol) and 20 µl of stripped ROS membranes (in the case of Am) were mixed in buffer J (20 mM Tris-HCl, pH 7.0, 0.1 mM EDTA). The stripped ROS membranes (containing rhodopsin as the receptor) were prepared by washing ROS membranes 3 times in buffer C(100 mM NaCl, 20 mM Tris-HCl, pH 7.0, 1 mM MgCl2) and 3 times in water containing 0.01% polyoxyethylene 23 lauryl ether (Brij 35™ nonionic detergent, Sigma Chemical Co.). […]
The effect of light on the hydrolysis of GTP or ATP was investigated by means of duplicate incubations in light exposure trials (a bright 10 msec xenon flash (Nikon) delivering 1.8 x 10^3 µWcm^-2sec^-1 which was sufficient to bleach greater than 70% of the rhodopsin present in each sample) or kept in the dark as controls. […] 50 µl aliquots of each supernatant were placed in a vial with 5 ml scintillation fluid and assayed for radioactivity. The hydrolysis of [γ-^32P]-GTP was measured in the presence and absence of photolyzed rhodopsin.
The apparent Michaelis constant was determined for As and Am by measuring the rate of GTP hydrolysis over a thousand-fold range of substrate concentrations. […]

The values below come from patent EP0803065B1, “A-PROTEIN AS A DIAGNOSTIC OF CANCER” (THE SCHEPENS EYE RESEARCH INSTITUTE, priority 1995, dated 1996).

For the molecule `Nc1ncnc2c1ncn2[C@@H]1O[C@H](COP(=O)(O)OP(=O)(O)OP(=O)(O)O)[C@@H](O)[C@H]1O` [ATP, adenosine triphosphate], the “Vmax:As ATPase” value is recorded as 0.56 (±0.09) pmol/mg A-protein min^-1.
